Measured values as given in ChEMBL document CHEMBL1221209.

Columns and labels:
Brain [1] = assay: Disruption of endocannabinoid metabolism in Swiss Webster mouse brain assessed as saturated C20:0 fatty acid level per gram of tissue at 4 mg/kg, ip after 4 hrs; conditions: route intraperitoneal, strain Swiss Webster
Brain [2] = assay: Disruption of endocannabinoid metabolism in KIAA1363 deficient Swiss Webster mouse brain assessed as saturated C24:0 fatty acid level per gram of tissue at 100 mg/kg, ip after 4 hrs; conditions: route intraperitoneal, strain Swiss Webster

| SMILES | Activity (Brain [1]) | Activity (Brain [2]) |
| --- | --- | --- |
| CCOP(=O)(OCC)Oc1nc(Cl)c(Cl)cc1Cl | 58 pmol/g |  |
| CCOP(=S)(OCC)Oc1nc(Cl)c(Cl)cc1Cl |  | 2.8 pmol/g |
